Assay results: patent US5063242A (priority 1990, dated 1991)

Protein sequences, listed by entry. Tags and fused reporters are not part of them. Lines headed by an entry give the natural chain unless they say otherwise; changes in a name come on top.
UniProt P41144: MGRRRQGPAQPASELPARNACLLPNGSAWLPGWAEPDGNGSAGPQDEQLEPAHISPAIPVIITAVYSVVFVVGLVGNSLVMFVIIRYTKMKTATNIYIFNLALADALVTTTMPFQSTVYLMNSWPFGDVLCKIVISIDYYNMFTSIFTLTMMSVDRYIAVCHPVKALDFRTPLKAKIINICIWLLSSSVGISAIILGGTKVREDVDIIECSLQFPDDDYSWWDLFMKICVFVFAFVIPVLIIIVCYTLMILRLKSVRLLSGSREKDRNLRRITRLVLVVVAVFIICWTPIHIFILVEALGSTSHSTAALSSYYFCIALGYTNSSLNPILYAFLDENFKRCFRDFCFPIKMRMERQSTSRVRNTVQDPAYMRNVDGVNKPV

Experiments:
[1] = test system: normally hydrated rat; assay: rat diuresis test (urine output in the normally hydrated rat); conditions: subcutaneous, six-hour test period; for maximum volume of urine produced: highest dose tested / maximum effect, mean ± SEM
[2] = test system: rat paw pressure; assay: rat paw pressure test for analgesia; conditions: iv
[3] = test system: carrageenan footpad edema in rats; assay: carrageenan footpad edema test; assay type: in vivo, rat; conditions: for Delta Edema (x ± SEM): 5 hours after carrageenan
[4] = test system: Male F-344 rats; assay: focal brain ischemia: left middle cerebral artery (MCA) occlusion, infarct size by TTC stain
[5] = test system: kappa receptor; assay: in vitro kappa opioid receptor binding; conditions: selectivity, μ versus kappa
[6] = target: kappa receptor (Cavia porcellus, UniProt P41144); assay: in vitro kappa opioid receptor binding

## CN(C(=O)Cc1cccc2occc12)[C@H]1CC[C@@]2(CCCO2)C[C@@H]1N1CCCC1 (relative stereo)
[1]
  maximum volume of urine produced: 14.9 ± 0.7 mL

## CN(C(=O)Cc1cccc2occc12)[C@H]1CC[C@@]2(CCCO2)C[C@@H]1N1CCCC1 (single isomer, unassigned)
[2]
  MPEso in the rat paw pressure test for analgesia: 0.030
[1]
  maximum volume of urine produced: 15.5 ± 1.2 mL
  effect on urine output (in words): dose-related increase in the volume of urine
[3]; IV
  inhibitor of the acute inflammatory response in rats (in words): potent
[3]; IV 0.01 mg/kg
  % I: 29%
  Delta Edema (x ± SEM): 55 ± 4.9
[3]; IV 0.03 mg/kg
  % I: 36%
  Delta Edema (x ± SEM): 50 ± 3.2
[3]; IV 0.1 mg/kg
  % I: 37%
  Delta Edema (x ± SEM): 49 ± 2.5
[3]; IV 0.3 mg/kg
  % I: 63%
  Delta Edema (x ± SEM): 29 ± 3.9
[3]; IV 1.0 mg/kg
  % I: 75%
  Delta Edema (x ± SEM): 19 ± 3.7
[4]; 0.5 mg/kg IV
  effect on infarct area and total volume (summary in words): significant decrease in the infarct area in three of the four brain sections and in the total volume
[4]; Anterior Medial section, 0.5 mg/kg IV
  Decrease (% change of infarct size vs saline): -36.8%
[4]; Anterior Medial section, 0.5 mg/kg IV 30 minutes and 24 hours after occlusion, 48 hours after occlusion, mean
  Infarct Size: 7.8 mm^2
[4]; Anterior section, 0.5 mg/kg IV
  Decrease (% change of infarct size vs saline): -26.4%
[4]; Anterior section, 0.5 mg/kg IV 30 minutes and 24 hours after occlusion, 48 hours after occlusion, mean
  Infarct Size: 6.5 mm^2
[4]; Posterior Medial section, 0.5 mg/kg IV
  Decrease (% change of infarct size vs saline): -62.7%
[4]; Posterior Medial section, 0.5 mg/kg IV 30 minutes and 24 hours after occlusion, 48 hours after occlusion, mean
  Infarct Size: 4.0 mm^2
[4]; Posterior section, 0.5 mg/kg IV
  Decrease (% change of infarct size vs saline): -80.9%
[4]; Posterior section, 0.5 mg/kg IV 30 minutes and 24 hours after occlusion, 48 hours after occlusion, mean
  Infarct Size: 1.8 mm^2
[4]; Total Volume, 0.5 mg/kg IV
  Decrease (% change of infarct size vs saline): -52.3%
[4]; Total volume of infarction, 0.5 mg/kg IV 30 minutes and 24 hours after occlusion, 48 hours after occlusion, mean
  Infarct Size, Total Volume: 30.1 mm^3
[5]
  μ/kappa ratio: 798
[6]; in vitro receptor binding studies, result in words
  affinity for the kappa receptor: very high affinity and selectivity
[6]; kappa opioid affinity
  Ki: 0.73 nM
